Experimental data from article PMC4229119, “Alzheimer's Therapeutics Targeting Amyloid Beta 1–42 Oligomers II: Sigma-2/PGRMC1 Receptors Mediate Abeta 42 Oligomer Binding and Synaptotoxicity” (PLoS ONE, 2014).

By UniProt entry, the sequences of proteins in these tests, tags left out.
UniProt Q5BJF2, whole entry: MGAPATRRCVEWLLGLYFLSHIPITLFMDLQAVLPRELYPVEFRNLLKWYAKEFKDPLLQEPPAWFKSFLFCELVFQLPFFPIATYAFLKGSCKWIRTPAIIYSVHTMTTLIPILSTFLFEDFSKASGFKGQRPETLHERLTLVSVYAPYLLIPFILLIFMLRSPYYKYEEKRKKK

What was measured:
[1] = test system: endogenous Abeta oligomers in human AD patient brain sections; experiment: Human tissue ex-vivo Abeta competition (plaque halo of AD brain sections); settings: unfixed AD neocortex sections, 1 hour; CT01344 5 or 15 µM (Spearman's Rho = −0.492, p = 0.038); antibody 1 ng/ml (p<0.05)
Procedure: Brains from human subjects with a diagnosis of AD (CERAD score “definite” by postmortem neuropathological exam) were obtained through the Massachusetts Alzheimer's Disease Research Center and Massachusetts General Hospital (MGH) Neuropathology Department, and experiments were approved by the Massachusetts General Hospital and Harvard Medical School Institutional Review Board. […] Fluorescent images of the sections were analyzed in ImageJ [42] analysis software using a custom macro which first identifies dense core plaques labeled by Thio-S and then measures the average Abeta labeling intensity in a 2 micron wide ring surrounding each plaque. A total of 346 to 464 plaques from six donor specimens were analyzed for each treatment group. The median intensities of Abeta labeling in the two micron area surrounding each plaques were calculated for each section (6 sections per treatment group) and subjected to multivariate correlation analysis (Spearman's test) to compare treatment effects across all donor brain samples.

[2] = test system: mixed cultures of hippocampal plus cortical neurons and glia; settings: cited from earlier work
synapses = settings: cited from earlier work
[3] = test system: mouse models of Alzheimer's disease; settings: cited from earlier work
sigma-2/PGRMC1 receptor = sigma-2/PGRMC1 receptor (Homo sapiens, UniProt Q5BJF2); experiment: Sigma-2 radioligand binding ([3H]DTG competition, Jurkat cell membranes; Cerep 0148); settings: read-out: Ki, displacement of selective radioligand [3H]-DTG from sigma-2/PGRMC1 receptor; homogenates of a human T cell line; mean ± S.E.M.

| Structure (SMILES) | Abeta immunofluorescence in the 2 micron wide halo around plaques [1] | reversal of Abeta oligomer-mediated trafficking deficits [2] | restoration of synapses (synapses) | restoration of cognitive function [3] | Ki (sigma-2/PGRMC1 receptor) |
| --- | --- | --- | --- | --- | --- |
| C[C@H](CCc1ccc(Cl)c(Cl)c1)NCc1ccc(C(F)(F)F)cc1 | dose-dependently reduced Abeta immunofluorescence | reverse Abeta oligomer-mediated trafficking deficits | restore synapses to normal | restore cognitive function |  |
| C[C@H](CCc1ccc(Cl)cc1)NCc1ccc(C(F)(F)F)cc1 |  | reverse Abeta oligomer-mediated trafficking deficits | restore synapses to normal | restore cognitive function | 50 nM |
